How the values were obtained:
ABCB1 pumps [1] = molecular target: T1, ABCB1 pumps (Homo sapiens, UniProt P08183); test: Calcein-AM efflux assay
ABCB1 pumps [2] = molecular target: T1, ABCB1 pumps; conditions: NCI/ADR-RES and G3 cells

The chains behind the UniProt entries cited, without tags or fusion partners.
UniProt P08183, whole entry: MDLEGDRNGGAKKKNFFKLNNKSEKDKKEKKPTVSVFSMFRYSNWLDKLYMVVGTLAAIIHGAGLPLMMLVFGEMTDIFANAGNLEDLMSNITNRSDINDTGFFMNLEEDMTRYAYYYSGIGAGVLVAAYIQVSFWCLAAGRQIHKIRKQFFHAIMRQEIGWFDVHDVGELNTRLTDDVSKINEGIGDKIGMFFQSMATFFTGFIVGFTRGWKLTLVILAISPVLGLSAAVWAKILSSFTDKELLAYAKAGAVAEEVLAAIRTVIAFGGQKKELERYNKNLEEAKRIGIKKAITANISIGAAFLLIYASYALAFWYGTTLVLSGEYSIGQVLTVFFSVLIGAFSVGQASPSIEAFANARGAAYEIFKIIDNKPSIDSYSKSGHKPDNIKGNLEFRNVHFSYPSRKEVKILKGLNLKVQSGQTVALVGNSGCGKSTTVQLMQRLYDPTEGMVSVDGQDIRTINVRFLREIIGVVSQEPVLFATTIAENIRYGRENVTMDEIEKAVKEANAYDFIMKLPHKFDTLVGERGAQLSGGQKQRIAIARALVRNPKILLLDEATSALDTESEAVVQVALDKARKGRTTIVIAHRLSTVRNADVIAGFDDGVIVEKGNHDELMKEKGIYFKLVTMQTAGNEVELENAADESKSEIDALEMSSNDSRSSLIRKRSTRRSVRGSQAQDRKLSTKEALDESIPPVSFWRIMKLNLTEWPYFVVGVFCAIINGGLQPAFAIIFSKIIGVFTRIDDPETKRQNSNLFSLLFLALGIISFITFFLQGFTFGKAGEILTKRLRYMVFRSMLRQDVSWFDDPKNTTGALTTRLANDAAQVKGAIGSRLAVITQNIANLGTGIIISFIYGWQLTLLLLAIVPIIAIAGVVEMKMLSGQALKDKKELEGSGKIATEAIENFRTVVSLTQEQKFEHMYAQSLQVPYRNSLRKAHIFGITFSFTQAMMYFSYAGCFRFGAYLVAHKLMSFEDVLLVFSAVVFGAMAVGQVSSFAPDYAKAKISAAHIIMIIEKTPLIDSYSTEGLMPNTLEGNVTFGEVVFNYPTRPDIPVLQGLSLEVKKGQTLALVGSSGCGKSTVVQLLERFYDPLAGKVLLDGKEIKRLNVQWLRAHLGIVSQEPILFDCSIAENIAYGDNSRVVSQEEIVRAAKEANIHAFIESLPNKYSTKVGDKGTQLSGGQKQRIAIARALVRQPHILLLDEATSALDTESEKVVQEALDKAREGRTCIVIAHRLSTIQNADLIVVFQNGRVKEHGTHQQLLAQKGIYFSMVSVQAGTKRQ

## 4-deoxy-3,4[2-spiro-[1-(isobutyloxycarbonyl)-piperidin-4-yl]]-(1H)-imidazo-(2,5-dihydro)rifamycin S [RTI-79]
ABCB1 pumps [1]
  Inhibition of ABCB1 compared with additional rifabutin derivatives: strongest inhibitor
ABCB1 pumps [2]
  Inhibition of efflux pumps: clear inhibition
